# Measurements: patent publication US11554120B2, “1H-pyrazolo[4,3-d]pyrimidine compounds as toll-like receptor 7 (TLR7) agonists and methods and uses therefor” (BRISTOL-MYERS SQUIBB COMPANY, priority 2018, dated 2023)
# The chains behind the UniProt entries cited, without tags or fusion partners. Residues count along the entry.
# UniProt Q9NYK1, 27-1049 limits assumed: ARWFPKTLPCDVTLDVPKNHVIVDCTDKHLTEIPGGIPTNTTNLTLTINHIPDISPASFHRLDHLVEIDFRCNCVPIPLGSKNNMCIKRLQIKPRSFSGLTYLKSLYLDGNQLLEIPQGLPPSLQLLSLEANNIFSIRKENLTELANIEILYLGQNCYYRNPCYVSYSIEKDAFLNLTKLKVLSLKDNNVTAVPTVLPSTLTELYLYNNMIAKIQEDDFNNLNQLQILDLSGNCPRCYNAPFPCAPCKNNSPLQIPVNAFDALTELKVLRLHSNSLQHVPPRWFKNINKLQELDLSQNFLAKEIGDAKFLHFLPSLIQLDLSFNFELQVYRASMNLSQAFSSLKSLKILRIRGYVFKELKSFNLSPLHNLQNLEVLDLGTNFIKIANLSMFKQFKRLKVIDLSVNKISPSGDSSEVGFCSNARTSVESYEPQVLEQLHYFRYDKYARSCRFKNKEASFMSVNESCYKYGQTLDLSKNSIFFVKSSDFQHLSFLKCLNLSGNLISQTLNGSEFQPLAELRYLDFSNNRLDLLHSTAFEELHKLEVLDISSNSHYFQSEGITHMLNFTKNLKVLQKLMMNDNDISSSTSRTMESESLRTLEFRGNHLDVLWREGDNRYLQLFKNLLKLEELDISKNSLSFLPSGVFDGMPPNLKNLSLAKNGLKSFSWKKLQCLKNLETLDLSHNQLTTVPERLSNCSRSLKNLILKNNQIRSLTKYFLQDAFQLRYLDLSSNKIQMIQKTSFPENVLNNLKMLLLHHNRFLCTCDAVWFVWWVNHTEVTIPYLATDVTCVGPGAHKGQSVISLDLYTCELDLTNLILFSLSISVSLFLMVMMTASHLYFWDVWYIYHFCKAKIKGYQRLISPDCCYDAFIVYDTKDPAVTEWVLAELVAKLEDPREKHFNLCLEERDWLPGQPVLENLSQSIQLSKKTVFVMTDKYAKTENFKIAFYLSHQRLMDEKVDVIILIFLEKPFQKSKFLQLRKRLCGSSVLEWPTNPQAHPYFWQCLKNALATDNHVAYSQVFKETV
# Target: human TLR7 (Homo sapiens, UniProt Q9NYK1)
# Test: Human TLR7 agonist activity assay (HEK-Blue TLR7 SEAP reporter)
# Format: cell-based
# Settings: read-out: hTLR7 EC50, HEK-Blue TLR7 cells, 18 h treatment, in some instances average of plural assays
compound,measurement,value
CCCCNc1nc(N)nc2cnn(Cc3ccc(Oc4ccc(CN5CCC(O)CC5)cc4)cc3OC)c12,EC50,13.1 nM
